# From PubChem BioAssay AID720582 (The Scripps Research Institute Molecular Screening Center, 2013)
# Sequences of proteins named here, by UniProt entry; tags and fusion partners are left off. Residues count along the entry.
# UniProt O14672, 214-748 limits assumed: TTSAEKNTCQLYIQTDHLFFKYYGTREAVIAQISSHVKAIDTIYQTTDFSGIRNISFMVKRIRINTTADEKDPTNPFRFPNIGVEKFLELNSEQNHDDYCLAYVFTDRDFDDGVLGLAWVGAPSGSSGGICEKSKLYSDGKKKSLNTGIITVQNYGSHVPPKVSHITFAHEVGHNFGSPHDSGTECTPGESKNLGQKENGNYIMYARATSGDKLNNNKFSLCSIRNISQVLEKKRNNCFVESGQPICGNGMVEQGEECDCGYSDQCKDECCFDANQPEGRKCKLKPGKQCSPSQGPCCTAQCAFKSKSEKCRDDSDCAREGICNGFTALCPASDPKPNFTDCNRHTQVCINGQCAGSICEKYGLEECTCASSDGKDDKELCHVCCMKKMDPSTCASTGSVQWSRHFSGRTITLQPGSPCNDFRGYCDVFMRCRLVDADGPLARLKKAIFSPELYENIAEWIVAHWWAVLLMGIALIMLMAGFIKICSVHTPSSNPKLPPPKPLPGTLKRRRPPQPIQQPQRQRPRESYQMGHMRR
# This is a selection; strong and weak results do not stand in their true shares. Calls of active or inactive are those of the source.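 How the source made its calls: active means inhibition above a per-campaign cutoff equal to the mean of compounds falling between control-based bounds plus 3 SD (cut at about 20% in these data); inactive means the rest.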
# Target: Disintegrin and metalloproteinase domain-containing protein 10 (Homo sapiens) (UniProt O14672)
# Test: human ADAM10 inhibitors, primary screen, biochemical, QFRET, HTS (AID 720582);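 further: 0% = DMSO wells while the 100% control is not disclosed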
# Details: recombinant ADAM10, EDANS/DABCYL FRET peptide cleavage, 3 h; at 7 µM; active compounds read high
row,Structure (SMILES),inhibition
1,O=C(NCC1(N2CCCCC2)CCCCC1)c1cccc(C(F)(F)F)c1,inactive: -3.29%
2,O=C(NCC1(N2CCOCC2)CCCCC1)c1cc(=O)[nH]c2ccccc12,inactive: -7.43%
3,COc1cc(C(=O)NCC2(N3CCCCC3)CCCCC2)ccc1OC(F)F,inactive: -7.14%
4,COc1ccc(NC2CCN(C(=O)OC(C)(C)C)CC2)cc1,inactive: -0.9%
5,CC(C)c1ccc(C(=O)NCC2(N3CCOCC3)CCCCC2)cc1,inactive: 2.04%
6,CN1CCN(CCOC(=O)C(O)(c2ccccc2)c2ccccc2)CC1,inactive: -3.83%
7,CCCCn1nnnc1C(c1cccc2ccccc12)N1CCC(n2c(=O)[nH]c3ccccc32)CC1 (stereo not given),active: 21.9%
8,CC(C)(C)n1nnnc1C(c1ccccc1OC(F)(F)F)N1CCC(n2c(=O)[nH]c3ccccc32)CC1 (stereo not given),inactive: 2.32%
9,O=C(NCC1(N2CCCCC2)CCCCC1)c1ccc(OC(F)F)cc1,inactive: -10.7%
10,CCN1CCC(Nc2ccc(Cl)cc2)CC1,inactive: -4.37%
11,O=c1[nH]c2ccccc2n1C1CCN(C(c2ccccc2OC(F)(F)F)c2nnnn2C2CCCC2)CC1 (stereo not given),inactive: -0.98%
12,N#CC1(Nc2ccccc2)CCN(CCc2ccccc2)CC1,inactive: -5.46%
13,O=C(NCC1(N2CCCCC2)CCCCC1)c1cccc([N+](=O)[O-])c1,inactive: -1.72%
14,CSc1ccc(C(=O)NCC2(N3CCOCC3)CCCCC2)cc1,inactive: 13.6%
15,CN1CCC(Nc2cccc(F)c2)CC1,inactive: 3.63%
16,O=C(NCC1(N2CCCCC2)CCCCC1)c1cncc(Br)c1,inactive: -3.42%
17,COc1ccc(C(c2nnnn2C2CCCC2)N2CCC(n3c(=O)[nH]c4ccccc43)CC2)cc1 (stereo not given),inactive: 1.34%
18,Cc1ccc(C(=O)NCC2(N(C)C)CCCCC2)o1,inactive: -1.07%
19,CCCOc1ccc(C(=O)NCC2(N(C)C)CCCCC2)cc1OC,inactive: 2.67%
20,CC(C)c1ccc(NC2CCN(C(=O)OC(C)(C)C)CC2)cc1,inactive: 0.94%

row,Structure (SMILES),inhibition
1,COc1ccc(CN(CCCl)CCCl)cc1Cl,inactive: -17.1%
2,COC(=O)C1(Nc2ccccc2)CCN(Cc2ccccc2)CC1,inactive: 1.9%
3,CN(C)c1cccc(C(=O)NCC2(N3CCCCC3)CCCCC2)c1,inactive: -33.8%
4,COc1cc(OC)c(C(=O)NCC2(N(C)C)CCCCC2)cc1OC,inactive: -12.5%
5,CCC(c1nnnn1C(C)(C)C)N1CCC(n2c(=O)[nH]c3ccccc32)CC1 (stereo not given),inactive: -2.2%
6,O=C(NCC1(N2CCOCC2)CCCCC1)c1cc(F)c(F)cc1Cl,inactive: -14.3%
7,CCCCn1nnnc1C(c1ccnc2ccccc12)N1CCC(n2c(=O)[nH]c3ccccc32)CC1 (stereo not given),inactive: 13.8%
8,O=C(NCC1(N2CCCCC2)CCCCC1)c1ccc(Cl)nc1,inactive: -19%
9,O=c1[nH]c2ccccc2n1C1CCN(C(c2ccccc2OC(F)(F)F)c2nnnn2C2CCCCC2)CC1 (stereo not given),inactive: 1.34%
10,Cc1cc(C)cc(N(C(=O)c2ccccc2)C2CCN(C(=O)OC(C)(C)C)CC2)c1,inactive: 5.86%
11,O=C(NCC1(N2CCOCC2)CCCCC1)c1cc2ccccc2o1,inactive: -2.7%
12,O=C(NCC1(N2CCCCC2)CCCCC1)c1ccc(Cl)s1,inactive: -14.8%
13,N#CC1(Nc2ccccc2)CCN(Cc2ccccc2)CC1,inactive: -0.56%
14,O=c1[nH]c2ccccc2n1C1CCN(C(c2cc3ccccc3o2)c2nnnn2C2CCCCC2)CC1 (stereo not given),inactive: -6.93%
15,O=C(OC1CN2CCC1CC2)C1c2ccccc2Oc2ccccc21 (stereo not given),inactive: -0.4%
16,COc1ccc(Cl)cc1C(=O)NCC1(N2CCOCC2)CCCCC1,inactive: 6.05%
17,CCOC(=O)N1CCC(Nc2ccc(OC)cc2)CC1,inactive: -0.9%
18,CCCCn1nnnc1C(c1ccc(OC)cc1)N1CCC(n2c(=O)[nH]c3ccccc32)CC1 (stereo not given),inactive: -6.5%
19,COc1ccc(C(=O)NCC2(N3CCCCC3)CCCCC2)cc1,inactive: 0.31%
20,COc1ccc(C(=O)NCC2(N3CCCCC3)CCCCC2)c(OC)c1OC,inactive: -2.85%

row,Structure (SMILES),inhibition
1,CC(C)(C)OC(=O)N1CCC(N(C(=O)c2ccccc2)c2ccc(F)cc2)CC1,inactive: -0.75%
2,CCC(c1nnnn1C1CCCC1)N1CCC(n2c(=O)[nH]c3ccccc32)CC1 (stereo not given),inactive: -10.3%
3,O=C(NCC1(N2CCCCC2)CCCCC1)c1ccc(=O)[nH]c1,inactive: -0.85%
4,CCCCn1nnnc1C(CC)N1CCC(n2c(=O)[nH]c3ccccc32)CC1 (stereo not given),inactive: -6.55%
5,O=C(NCC1(N2CCCCC2)CCCCC1)c1cccs1,inactive: -6.02%
6,CCCCn1nnnc1C(c1cccs1)N1CCC(n2c(=O)[nH]c3ccccc32)CC1 (stereo not given),inactive: -5.22%
7,CSc1ccccc1C(=O)NCC1(N2CCCCC2)CCCCC1,inactive: -13%
8,Cc1cccc(NC2(C#N)CCN(Cc3ccccc3)CC2)c1,inactive: -11.8%
9,O=c1[nH]c2ccccc2n1C1CCN(C(c2ccccc2)c2nnnn2C2CCCCC2)CC1 (stereo not given),inactive: 0.28%
10,CCOC(=O)N1CCC(Nc2cccc(C)c2)CC1,inactive: -4.92%
11,COc1cc(C(=O)NCC2(N(C)C)CCCCC2)ccc1OC(F)F,inactive: -9.91%
12,O=c1[nH]c2ccccc2n1C1CCN(C(c2cccc3ccccc23)c2nnnn2C2CCCC2)CC1 (stereo not given),inactive: -0.58%
13,CC(C)(C)n1nnnc1C(c1ccccc1)N1CCC(n2c(=O)[nH]c3ccccc32)CC1 (stereo not given),inactive: 1.14%
14,O=C1CCN(Cc2ccccc2)CC1,inactive: -21.1%
15,CCOc1ccc(C)cc1CN(CCCl)CCCl,inactive: 5.11%
16,CCCCOc1ccc(C(=O)NCC2(N3CCOCC3)CCCCC2)cc1,inactive: -2.34%
17,CCCCn1nnnc1C(c1cc2ccccc2o1)N1CCC(n2c(=O)[nH]c3ccccc32)CC1 (stereo not given),inactive: -0.96%
18,O=P1(N(CCCl)CCCl)SCCCS1,inactive: -11%
19,O=C(NCC1(N2CCCCC2)CCCCC1)c1ccc(F)cc1,inactive: -13.7%
20,CCOC(=O)N1CCC(Nc2ccc(F)cc2)CC1,inactive: 3.47%
